ChEMBL document CHEMBL1147048, “Identification of anti-prion compounds as efficient inhibitors of polyglutamine protein aggregation in a zebrafish model” (J Biol Chem, 2007)
Activity calls are given as the source filed them. The rule behind the calls is not given here.

Assay: Inhibition of aggregation of HA-HttE*1Q53 mutant expressed in zebrafish embryo at 3 and 30 uM by filter trap assay
For `COc1cc(/C=N/N=C(N)N)ccc1OCc1c(C)c(C)c(Br)c(C)c1C.Cl`, the Activity was “Active”. For `O=C(N/N=C/c1ccc2ccccc2c1)c1ccc(O)c(O)c1`, the Activity was “Active”. In the case of `O=C(N/N=C/c1ccc2ccccc2c1)c1cccc(Cl)c1`, the Activity is reported as “Active”.
